Data published in patent publication US20220107328A1, “METHODS OF TREATING LIVER DISEASES” (Camp4 Therapeutics Corporation, priority 2018, published 2022).

Legend:
PNPLA3 mRNA = assay: qRT-PCR of PNPLA3 mRNA in compound-treated primary human hepatocytes; conditions: validation in human hepatocytes from a second donor
PNPLA3 expression = assay: RNA-seq of compound-treated primary human hepatocytes; type: cell-based
PNPLA5 expression = assay: RNA-seq of compound-treated primary human hepatocytes, PNPLA5; type: cell-based
Protocol: To identify small molecules that modulate PNPLA3, primary human hepatocytes were prepared as a monoculture, and at least one small molecule compound was applied to the cells.
RNA-seq was performed to determine the effects of the compounds on PNPLA3 expression in hepatocytes. Fold change was calculated by dividing the level of expression in the cell system that had been perturbed by the level of expression in an unperturbed system. Changes in expression having a p-value≤0.05 were considered significant.
TBK1, also known as the NF-κB-activating kinase, can mediate NF-κB activation in response to certain growth factors. ACVR1 is a member of the TGF-beta family subgroup of receptors and can activate SMAD transcriptional regulators upon ligand binding. […] Therefore, signaling proteins in the NF-κB pathway and ACVR1/SMAD pathway were targeted via siRNA to test their effect on PNPLA3.

Row | Molecule | PNPLA3 expression (in words) (PNPLA3 mRNA) | PNPLA3 expression in the RNA-seq study (in words) (PNPLA3 expression) | PNPLA5 expression in the RNA-seq study (in words) (PNPLA5 expression)
1 | C1=C/COCc2cc(ccc2OCCN2CCCC2)Nc2nccc(n2)-c2cccc(c2)COC/1 [Pacritinib] | substantial decrease in PNPLA3 expression |  | 
2 | BMP2 (protein, UniProt P12643 283-396, looked up) Bone morphogenetic protein 2: QAKHKQRKRLKSSCKRHPLYVDFSDVGWNDWIVAPPGYHAFYCHGECPFPLADHLNSTNHAIVQTLVNSVNSKIPKACCVPTELSAISMLYLDENEKVVLKNYQDMVVEGCGCR |  | best upregulators of PNPLA3 and PNPLA5 | best upregulators of PNPLA3 and PNPLA5
